Laboratory results taken from PubChem BioAssay AID2014 (Sanford-Burnham Center for Chemical Genomics, 2009).
Only a part is listed here, and it is no random draw. Activity calls are given as the source filed them. The rule behind the calls is not given here.

Chains of the proteins cited; added tags and fusions are not shown.
UniProt P11940, whole entry: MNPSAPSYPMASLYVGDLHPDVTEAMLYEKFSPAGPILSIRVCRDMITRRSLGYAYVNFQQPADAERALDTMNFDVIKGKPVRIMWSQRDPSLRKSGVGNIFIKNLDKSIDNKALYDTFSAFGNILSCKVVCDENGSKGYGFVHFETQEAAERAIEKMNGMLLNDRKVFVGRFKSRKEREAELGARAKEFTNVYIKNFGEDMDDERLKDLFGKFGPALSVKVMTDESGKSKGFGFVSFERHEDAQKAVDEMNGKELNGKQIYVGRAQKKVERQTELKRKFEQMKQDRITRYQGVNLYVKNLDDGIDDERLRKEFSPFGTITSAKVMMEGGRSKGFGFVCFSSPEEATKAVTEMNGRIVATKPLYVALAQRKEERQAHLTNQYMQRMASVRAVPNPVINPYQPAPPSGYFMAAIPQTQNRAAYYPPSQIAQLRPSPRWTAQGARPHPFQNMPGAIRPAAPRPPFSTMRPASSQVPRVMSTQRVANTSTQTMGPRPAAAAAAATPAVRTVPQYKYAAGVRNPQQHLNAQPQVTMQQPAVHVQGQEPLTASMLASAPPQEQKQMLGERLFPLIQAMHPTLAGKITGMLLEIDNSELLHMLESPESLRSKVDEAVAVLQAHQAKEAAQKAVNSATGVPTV

Each compound was assayed against Polyadenylate-binding protein 1 (Homo sapiens) (UniProt P11940) (assay: PABP poly(A) RNA binding inhibitors, primary screen, biochemical, fluorescence polarization, uHTS (AID 2014)). Settings: at 35 µM, stronger effect = higher value.
With `COc1cc(C(=O)NCC2(N3CCCCC3)CCCCC2)ccc1OC(F)F` the inhibition was inactive: 33.5%. In the case of `O=C(NCC1(N2CCOCC2)CCCCC1)c1cc(=O)[nH]c2ccccc12`, the inhibition is reported as inactive: -4%. In the case of `CN1CCN(CCOC(=O)C(O)(c2ccccc2)c2ccccc2)CC1`, the inhibition is reported as inactive: 9.8%. With `COc1ccc(NC2CCN(C(=O)OC(C)(C)C)CC2)cc1` the inhibition was inactive: 6.5%. For `O=C(NCC1(N2CCCCC2)CCCCC1)c1cccc(C(F)(F)F)c1`, the inhibition was inactive: 8.6%. In the case of `CCN1CCC(Nc2ccc(Cl)cc2)CC1`, the inhibition is reported as inactive: -4.6%. In the case of `N#CC1(Nc2ccccc2)CCN(CCc2ccccc2)CC1`, the inhibition is reported as inactive: -7.9%. In the case of `O=C(NCC1(N2CCCCC2)CCCCC1)c1cccc([N+](=O)[O-])c1`, the inhibition is reported as inactive: 1.2%. With `O=C(NCC1(N2CCCCC2)CCCCC1)c1ccc(OC(F)F)cc1` the inhibition was inactive: 5.4%. For `CCCOc1ccc(C(=O)NCC2(N(C)C)CCCCC2)cc1OC`, the inhibition was inactive: 4%. In the case of `COc1cc(OC)c(C(=O)NCC2(N(C)C)CCCCC2)cc1OC`, the inhibition is reported as inactive: 3.2%. `CC(C)c1ccc(NC2CCN(C(=O)OC(C)(C)C)CC2)cc1` was tested, and the inhibition was inactive: -4.7%. `COc1ccc(CN(CCCl)CCCl)cc1Cl` was tested, and the inhibition was active: 63.9%. With `CN(C)c1cccc(C(=O)NCC2(N3CCCCC3)CCCCC2)c1` the inhibition was inactive: -6%. In the case of `O=C(OC1CN2CCC1CC2)C1c2ccccc2Oc2ccccc21` (centres undefined), the inhibition is reported as inactive: -6.1%. In the case of `N#CC1(Nc2ccccc2)CCN(Cc2ccccc2)CC1`, the inhibition is reported as inactive: -10.4%. For `CCOC(=O)N1CCC(Nc2ccc(OC)cc2)CC1`, the inhibition was inactive: 18.7%. `Cc1cc(C)cc(N(C(=O)c2ccccc2)C2CCN(C(=O)OC(C)(C)C)CC2)c1` was tested, and the inhibition was inactive: 6.6%. `O=C(NCC1(N2CCOCC2)CCCCC1)c1cc2ccccc2o1` was tested, and the inhibition was inactive: 6.8%. In the case of `CSc1ccccc1C(=O)NCC1(N2CCCCC2)CCCCC1`, the inhibition is reported as inactive: 8.6%. With `COc1ccc(C(=O)NCC2(N3CCCCC3)CCCCC2)cc1` the inhibition was inactive: 3.3%. `CC(C)(C)OC(=O)N1CCC(N(C(=O)c2ccccc2)c2ccc(F)cc2)CC1` was tested, and the inhibition was inactive: 3.8%. With `COc1ccc(C(=O)NCC2(N3CCCCC3)CCCCC2)c(OC)c1OC` the inhibition was inactive: -2.8%. With `O=C(NCC1(N2CCCCC2)CCCCC1)c1ccc(=O)[nH]c1` the inhibition was inactive: -2.2%. `COc1cc(C(=O)NCC2(N(C)C)CCCCC2)ccc1OC(F)F` was tested, and the inhibition was inactive: -5.1%. In the case of `CCOC(=O)N1CCC(Nc2cccc(C)c2)CC1`, the inhibition is reported as inactive: -9.2%. In the case of `Cc1ccc(OCC(C)C)c(CN(CCCl)CCCl)c1`, the inhibition is reported as active: 71.4%. In the case of `O=C(NCC1(N2CCCCC2)CCCCC1)c1ccc(F)cc1`, the inhibition is reported as inactive: 5.3%. With `COc1ccc(NC2CCN(CCc3ccccc3)CC2)c(OC)c1` the inhibition was inactive: 20%. In the case of `CCOC(=O)N1CCC(Nc2ccc(F)cc2)CC1`, the inhibition is reported as inactive: 4.1%. `CCOc1ccc(C)cc1CN(CCCl)CCCl` was tested, and the inhibition was active: 72.4%. In the case of `CN(C)c1ccc(C(=O)NCC2(N3CCCCC3)CCCCC2)cc1`, the inhibition is reported as inactive: -2.5%. For `CCN1CCC(Nc2cccc(F)c2)CC1`, the inhibition was inactive: -1.5%. `Fc1ccccc1NC1CCN(Cc2ccccc2)CC1` was tested, and the inhibition was inactive: 15.2%. With `COc1cc(OC)cc(C(=O)NCC2(N3CCCCC3)CCCCC2)c1` the inhibition was inactive: -4.7%. For `CN1CCC(Nc2ccc(Cl)cc2)CC1`, the inhibition was inactive: -3.6%. `CCCOc1ccc(C)cc1CN(CCCl)CCCl` was tested, and the inhibition was active: 74.4%. With `COc1cc(OC)cc(C(=O)NCC2(N3CCOCC3)CCCCC2)c1` the inhibition was inactive: -5.7%. For `COc1cccc(C(=O)N(c2cc(C)cc(C)c2)C2CCN(C(=O)OC(C)(C)C)CC2)c1`, the inhibition was inactive: 8.2%. `CCC(CO)(C(=O)OC1CN2CCC1CC2)c1ccccc1` (centres undefined) was tested, and the inhibition was inactive: 4.3%. For `CC(C)(C)OC(=O)N1CCC(Nc2ccccc2)CC1`, the inhibition was inactive: 1.2%. `O=C(O)C1(Nc2ccccc2)CCN(Cc2ccccc2)CC1` was tested, and the inhibition was inactive: 0.1%. In the case of `CCCOc1ccc(C(=O)NCC2(N(C)C)CCCCC2)cc1`, the inhibition is reported as inactive: -0.1%. For `CCOc1ncccc1C(=O)NCC1(N2CCOCC2)CCCCC1`, the inhibition was inactive: 8.8%. `CN1CCC(Nc2ccc(F)c(Cl)c2)CC1` was tested, and the inhibition was inactive: -4.9%. In the case of `O=C(OC1CN2CCC1CC2)C1c2ccccc2C=Cc2ccccc21` (centres undefined), the inhibition is reported as inactive: -9.4%. `CCOC(=O)N1CCC(Nc2ccc(C)cc2)CC1` was tested, and the inhibition was inactive: 10.9%. With `N/C(=N\O)c1c(N)no[n+]1[O-]` the inhibition was inactive: -0.9%. `COc1ccc(C(=O)NCC2(N3CCOCC3)CCCCC2)cc1OC` was tested, and the inhibition was inactive: -5.9%. With `CN(C)C1(CNC(=O)c2cccc(C#N)c2)CCCCC1` the inhibition was inactive: -8.5%. In the case of `c1ccc(CN2CCC(Nc3ccccc3)CC2)cc1`, the inhibition is reported as inactive: 0.2%. For `CCCN1CCC(Nc2cc(OC)cc(OC)c2)CC1`, the inhibition was inactive: 54.1%. In the case of `N#Cc1ccc(C(=O)NCC2(N3CCCCC3)CCCCC2)cc1`, the inhibition is reported as inactive: -18.5%. For `CC(C)(C)OC(=O)N1CCC(N(C(=O)c2ccccc2)c2ccc(Cl)cc2)CC1`, the inhibition was inactive: -4.7%.
